Reference: patent US12377089B2, “Quinoline derivative used for soft tissue sarcoma combination therapy” (CHIA TAI TIANQING PHARMACEUTICAL GROUP CO., LTD., priority 2019, dated 2025)

System: human sarcoma SA-22-0003PDX nude mouse model (malignant fibrous histiocytoma)
Format: in vivo, BALB/c nude mouse
Details: after 5 weeks of administration; anlotinib 3 mg/kg/d intragastric daily, epirubicin 2.5 mg/kg tail vein once weekly; blank control 2.62±0.64 g

SMILES	average tumor weight
COc1cc2c(Oc3ccc4[nH]c(C)cc4c3F)ccnc2cc1OCC1(N)CC1 [anlotinib, 1-[[[4-(4-fluoro-2-methyl-1H-indol-5-yl)oxy-6-methoxyquinolin-7-yl]oxy]methyl]cyclopropylamine]	0.71 ± 0.36 g
COc1cccc2c1C(=O)c1c(O)c3c(c(O)c1C2=O)C[C@@](O)(C(=O)CO)C[C@@H]3O[C@H]1C[C@H](N)[C@@H](O)[C@H](C)O1 [epirubicin]	1.20 ± 0.42 g
